Experimental findings from US20090253622A1, “USE OF TLR3 AGONISTS FOR THE TREATMENT OF NEURODEGENERATIVE DISORDERS” (Nederlandse Organisatie voor toegepast - …, priority 2006, published 2009) are described below.

The test system of the experiment is human adult astrocytes. Briefly: cDNA array profiling of cytokine, chemokine and growth factor genes in human adult astrocytes. The format is cell-based. The conditions noted are these: 200 U/mL IFNβ control, data not shown. On the procedure: Adult human astrocytes from post-mortem subcortical white matter samples were isolated and cultured as previously described (Bsibsi et al., J Neuropath Exp Neurol 61:1013-1021 [2002]). As determined by specific staining for cellular markers for astrocytes (glial fibrillary acidic protein; GFAP) and microglia (CD68) astrocyte cultures were essentially homogeneous; as a rule all cells expressed GFAP and none of them expressed CD68. When indicated astrocytes were stimulated with 50 μg/mL poly I:C (Amersham Pharmacia Biotech, Piscataway, N.J.) or 200 ng/mL LPS (Sigma-Aldrich, Steinheim, Germany) to activate TLR3 and TLR4, respectively. These doses were selected on the basis of maximum effects in astrocytes. […]
Analysis of the mRNA profile of astrocytes was performed by hybrid selection of ^32P-labeled cDNA on Clontech human cytokine/chemokine Atlas® arrays as previous described (Meeuwsen et al., Glia 43:243-253 [2003]). Hybridization signals for each of the 268 cytokine, chemokine and growth factor (receptor) genes were calculated as the mean of duplicate measurements, corrected for background intensity and quantified using software provided by the manufacturer. Relative expression was calculated by dividing these hybridization signals by the mean signal for all nine housekeeping reference genes on the corresponding array. […]

B1: IFN-β: interferon beta, therapeutic agent in multiple sclerosis (protein, UniProt P01574 22-187, looked up)
Interferon beta: MSYNLLGFLQRSSNFQCQKLLWQLNGRLEYCLKDRMNFDIPEEIKQLQQFQKEDAALTIYEMLQNIFAIFRQDSSSTGWNETIVENLLANVYHQINHLKTVLEEKLEKEDFTRGKLMSSLHLKRYYGRILHYLKAKEYSHCAWTIVRVEILRNFYFINRLTGYLRN
modifications: interferon beta-1a (Avonex)
notes: interferon beta, therapeutic agent in multiple sclerosis
Regarding B1, the “induction of CXCL8 and CXCL2” value was “strongly induced”.
